# High-throughput results from PubChem BioAssay.
# miR-21 reporter – raises the signal of a miR-21 reporter | HeLa miR-21 FLuc reporter, luciferase, 48 h | Potency, µM (doses to about 38.3 µM), for the others: at the highest dose reporter change, positive = more light | 340,000 tested, under 10 active | AID 2288; active = well fitted rising curve with a large enough effect; inconclusive = small, poorly fitted or top-dose-only effect; inactive = no such curve, though single readings can be large or run the other way;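 also: % of control where 0% means no effect; miR-21 action dims this reporter so a rising signal means less miR-21 action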
#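 HeLa cells endogenously expressing miR-21, stably carrying CMV-driven firefly luciferase with a downstream miR-21 binding site, 2000 cells/well. Titrations up to approximately 40 uM, 48 hours; luciferase luminescence read.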
# PTHR1 agonist – PTHR1 (human) receptor agonism; Q03431; Potency, µM (series often up to 115 µM), inactives show at the top dose activation, most hits filed as activators; 0.075% of 410,000 active; HEK293 GP2 PTHR1 cells, GloSensor cAMP luminescence, 1 h; note: potency is the fitted concentration of half-maximal effect; nearly all actives have a fitted effect of over 55% in size
#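 HEK-293-derived GP2 cells expressing PTHR1 and a GloSensor cAMP reporter, 3,000/well, plated overnight, given luciferin plus IBMX (each 0.5 mM as added) for 1 h at 37 °C, then compound for 1 h at 37 °C. Luminescence was read after 15 min at room temperature.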
# GLP1R inv ag – GLP-1 receptor (human) inverse agonism; P43220; HEK293 GLP-1R CRE-luciferase, luminescence, 24 h; GLP-1R form is constitutively active; Potency, µM (series often up to 38.3 µM), for inactives: at the top dose activity change, negative = inhibition, hits mostly inhibitors; 1.6% of 410,000 active; note: potency is the fitted concentration of half-maximal effect; % is set by controls: 0 for no effect and ±100 for the full control effect; nearly all actives have a fitted effect of over 55% in size
#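 Assay principle: reduced luminescence from a cAMP-responsive reporter in HEK293 cells co-expressing a constitutively active GLP-1R. Conditions: 24 hr compound incubation, 37 deg C, 5% CO2.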
# GLP1R ag – activates the human GLP-1 receptor; HEK293 GLP-1R CRE-luciferase, luminescence, 4-6 h; cells express a hypersensitive GLP-1R form; 0.007% of 380,000 active; AID 624172; Potency, µM (highest dose often 45.6 µM), for the others: at the top dose activation, most hits filed as activators; note: potency is the fitted concentration of half-maximal effect; % of control where 0% means no effect
# Pin1 inh – inhibitors of human Pin1; Q13526; Pin1 FP peptide displacement, HiFluor488, 10 min; Potency, µM (doses to about 115 µM), without a hit: top-dose activity, negative = inhibition, most hits filed as inhibitors; 0.009% of 390,000 active; active = well fitted inhibition curve with a large enough effect in the polarisation, with a control signal flat, not every such curve was filed as active; inconclusive = small, poorly fitted or top-dose-only effect, or effect the other way, or a change in a side signal; inactive = no such curve, though single readings can be large or run the other way; the % refers to the polarisation; note: potency is the fitted concentration of half-maximal effect; % is set by controls: 0 for no effect and ±100 for the full control effect
# GLP1R cytotox – cytotoxicity in counter-screen for GLP-1R inverse agonists; HEK293 cAMP-luciferase reporter cells, luminescence, 24 h; Potency, µM (series often up to 38.3 µM), inactives show at the highest dose activity change, negative = inhibition, most hits filed as inhibitors; 0.13% of 410,000 active;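 note: loss of luciferase light is scored as toxicity; potency is the fitted concentration of half-maximal effect; % is set by controls: 0 for no effect and ±100 for the full control effect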
#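 MLSMR compounds, 24 hr on cells at 37 deg C/5% CO2; luminescence after luciferase reagent (12 min RT). Inhibition counted as the undesired cytotoxic outcome.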
# An asterisk follows results filed as active; i = inactive; ? = inconclusive; nt = no result; [ ] = another dose, or the depositor's remark. A selection: hits, their analogues and other compounds. The true share with any hit is near 1.7%. Unless noted, calls come from the whole dose curve; as a rule, active = well fitted curve in the direction sought with a large enough effect; inconclusive = small, poorly fitted or top-dose-only effect, or another doubt; inactive = no such curve, though single readings can be large; an effect the other way counts as inactive or inconclusive.
[1] COc1ccc(SC[C@H](Cc2ccccc2)N2CC[C@@H](C)CCC2=O)cc1
[2] CCCN1CNc2c(c(=O)[nH]c(=S)n2CCc2ccc(OC)cc2OC)C1
[3] CCc1ccc(-n2nc(C)c3c(C(=O)Nc4cc(OC)cc(OC)c4)cc(C)nc32)cc1
[4] COc1cc(NC(=O)c2cc(C)nc3c2c(C)nn3-c2ccccc2Cl)cc(OC)c1
[5] NC(=O)C1CCN(c2nc(-c3cccc(C(F)(F)F)c3)cs2)CC1
[6] O=C(NCCc1c[nH]c2ccccc12)c1cccc(S(=O)(=O)Nc2ccccc2Cl)c1
[7] CN(c1ccccc1)S(=O)(=O)c1cccc(C(=O)NCCc2c[nH]c3ccccc23)c1
[8] O=C(NCCc1c[nH]c2ccccc12)Nc1cccc2ccccc12
Screen / compound no.	1	2	3	4	5	6	7	8
miR-21 reporter	nt	nt	7.0%	16.6%	nt	12.6%	nt	-0.1%
PTHR1 agonist	-33.6%	nt	-32.9%	-44.1%	nt	-19.9%	-9.3%	i
GLP1R inv ag	?	nt	5.01µM*	12.6µM*	nt	?	8.91µM*	?
GLP1R ag	10.8%	nt	nt	-7.5%	nt	-9.1%	-1.0%	3.8%
Pin1 inh	-23.2%	-0.5%	19.7%	-4.7%	-3.2%	?	?	0.6%
GLP1R cytotox	21.2%	nt	0.0%	-3.0%	nt	-3.6%	-14.0%	7.3%

[9] Cc1cccc(NC(=O)NCCc2c[nH]c3ccccc23)c1
[10] CCOc1ccccc1NC(=O)Nc1cccc(NC(C)=O)c1
[11] CCOc1ccccc1NC(=O)Nc1ccc2c(c1)CCC2
[12] COc1ccc(/C=C/C(=O)C(C(N)=O)=C2SCCS2)cc1
[13] NC(=O)C(C(=O)/C=C/c1ccc(Cl)cc1)=C1SCCS1
[14] CCn1cc(C(=O)NCCN(CC(C)C)CC(C)C)c(=O)c2cc(S(=O)(=O)N3CCOCC3)ccc21
[15] CCC1CCCCN1CCCNC(=O)c1cn(CC)c2ccc(S(=O)(=O)N3CCc4ccccc4C3)cc2c1=O (stereo not given)
[16] CCn1cc(C(=O)NCCCN2CCCC(C)C2)c(=O)c2cc(S(=O)(=O)N3CCc4ccccc4C3)ccc21 (stereo not given)
Screen / compound no.	9	10	11	12	13	14	15	16
miR-21 reporter	-12.9%	4.7%	-41.0%	-19.7%	14.1%	4.0%	-4.9%	-2.2%
PTHR1 agonist	-11.3%[57.5 µM]	i	-2.7%	-14.1%	-42.4%	i	i	-3.4%
GLP1R inv ag	8.91µM*	-15.8%	10µM*	14.2%	3.98µM*	7.94µM*	?	10µM*
GLP1R ag	2.7%	-3.8%	13.4%	-21.9%	-8.1%	8.7%	11.0%	11.2%
Pin1 inh	?	-4.9%	?	52.8%	4.1%	?	0.4%	6.0%
GLP1R cytotox	-2.3%	1.7%	-15.1%	-1.0%	-28.4%	-17.8%	-7.5%	-26.5%

[17] NC(=O)c1nc(-c2ccc(F)c(F)c2)nc2c1[nH]c(=O)n2-c1cccc(Cl)c1
[18] CC(=O)N1CCN(c2ccc(NCc3ccccc3)cc2)CC1
[19] Fc1ccc(CNc2ccc(N3CCN(Cc4ccccc4)CC3)cc2)cc1
[20] Cc1ccc(NS(=O)(=O)c2cccc(F)c2)cc1C
[21] Cc1ccc(NS(=O)(=O)c2cc3c(cc2-c2ccsc2)NC(=O)CO3)cc1C
[22] CCCCN(CC)CCNC(=O)c1cn(-c2ccc(Cl)cc2)c(=O)c2ccccc12
[23] Cc1cc(C)c2c(=O)cc(C(=O)Nc3sc4c(c3C(=O)NCc3ccccc3)CCCC4)oc2c1
[24] O=[S+]([O-])(c1cc2ccccc2o1)N1CCN([S+](=O)([O-])c2c(F)cccc2F)CC1
Screen / compound no.	17	18	19	20	21	22	23	24
miR-21 reporter	-0.2%	-10.9%	0.2%	nt	nt	0.2%	-4.7%	nt
PTHR1 agonist	0.5%	-9.6%	-72.3%	nt	nt	i	i	nt
GLP1R inv ag	6.9%	0.0%	4.47µM*	nt	nt	10µM*	8.9%	nt
GLP1R ag	nt	4.0%	-1.9%	nt	nt	7.0%	nt	nt
Pin1 inh	7.3%	1.9%	?	2.6%	-5.6%	-2.3%	-3.3%	2.1%
GLP1R cytotox	2.6%	-13.7%	-15.4%	nt	nt	-29.2%	-4.9%	nt

# 3 compounds from above, ordered by SMILES length, lowest first.
[20] Cc1ccc(NS(=O)(=O)c2cccc(F)c2)cc1C
[18] CC(=O)N1CCN(c2ccc(NCc3ccccc3)cc2)CC1
[17] NC(=O)c1nc(-c2ccc(F)c(F)c2)nc2c1[nH]c(=O)n2-c1cccc(Cl)c1
Screen / compound no.	20	18	17
miR-21 reporter	nt	-10.9%	-0.2%
PTHR1 agonist	nt	-9.6%	0.5%
GLP1R inv ag	nt	0.0%	6.9%
GLP1R ag	nt	4.0%	nt
Pin1 inh	2.6%	1.9%	7.3%
GLP1R cytotox	nt	-13.7%	2.6%

# Sorted by the number under Pin1 inh (ascending): 3 of the compounds above
entry	smiles	Pin1 inh
8	O=C(NCCc1c[nH]c2ccccc12)Nc1cccc2ccccc12	0.6%
20	Cc1ccc(NS(=O)(=O)c2cccc(F)c2)cc1C	2.6%
16	CCn1cc(C(=O)NCCCN2CCCC(C)C2)c(=O)c2cc(S(=O)(=O)N3CCc4ccccc4C3)ccc21 (stereo not given)	6.0%

# (continued)
[25] COc1ccc2[nH]c3c(c2c1)CCN(C(=O)c1cccc(Cl)c1)C3c1ccc(F)cc1 (stereo not given)
[26] CCOc1ccc(C2c3[nH]c4ccccc4c3CCN2C(=O)CSCc2ccc(F)cc2)cc1 (stereo not given)
[27] CSc1ccc(C2c3[nH]c4ccccc4c3CCN2C(=O)CCC2CCCC2)cc1 (stereo not given)
[28] CCOc1cccc(CC(=O)N2CCc3c([nH]c4ccc(OC)cc34)C2c2ccc(F)cc2)c1OCC (stereo not given)
[29] CCOc1cccc(CC(=O)N2CCc3c([nH]c4ccccc34)C2c2ccc(C)cc2)c1OCC (stereo not given)
[30] Brc1ccc(Nc2c3c(nc4nncn24)CCC3)cc1
[31] Cc1ccc(NC(=O)CN2C(=O)c3cccnc3Sc3ccccc32)cc1C
[32] O=C(CNC(=O)c1ccc(C(F)(F)F)cc1)OC(C(=O)Nc1cc(C(F)(F)F)ccc1Cl)c1ccccc1 (stereo not given)
Screen / compound no.	25	26	27	28	29	30	31	32
miR-21 reporter	20.9%	20.1%	-8.4%	-4.8%	17.6%	2.4%	-48.6%	nt
PTHR1 agonist	-3.0%	?	i	i	i	-19.0%	i	nt
GLP1R inv ag	4.47µM*	2.82µM*	2.24µM*	-5.0%	10µM*	-16.1%	4.3%	nt
GLP1R ag	-0.2%	nt	nt	0.2%	nt	nt	nt	nt
Pin1 inh	-2.5%	1.6%	?	-12.7%	11.7%	-13.9%	4.0%	-2.3%
GLP1R cytotox	1.6%	-12.2%	17.8%	-3.6%	-2.7%	0.6%	0.5%	nt

[33] COc1ccc(C2Nc3ccccc3C(=O)N2c2ccc(Cl)cc2)cc1COc1ccc(NC(C)=O)cc1 (stereo not given)
[34] CCOc1ccc(-c2n[nH]c(C)c2Oc2ccccc2OC)c(O)c1
[35] CCCOC(=O)c1ccc(Oc2c(-c3ccc(OC)cc3O)n[nH]c2C)cc1
[36] C=C(C)COc1ccc(-c2n[nH]c(C)c2Oc2ccccc2OC)c(O)c1
[37] CCCOC(=O)c1ccc(Oc2cn[nH]c2-c2ccc(O)cc2O)cc1
[38] C=C(C)COc1ccc(-c2[nH]ncc2-c2ccc(OC)cc2)c(O)c1
[39] C=C(C)COc1ccc(-c2[nH]ncc2Oc2cccc(OC)c2)c(O)c1
[40] CCc1ccc(NC(=O)Cn2ccn(-c3ccc(C)c(C)c3)c(=O)c2=O)cc1
[41] CCN(CC)CCN(C(=O)c1ccco1)c1nc2c(C)c(C)ccc2s1
[42] C=C(C)COc1ccc(-c2ncncc2Oc2ccc(OC)cc2)c(O)c1
Screen / compound no.	33	34	35	36	37	38	39	40	41	42
miR-21 reporter	nt	-6.5%	13.3%	8.9%	5.7%	25.5%	-5.2%	-3.5%	-17.2%	2.5%
PTHR1 agonist	nt	-7.1%	i	-24.1%[57.5 µM]	-6.9%	i	-2.9%[57.5 µM]	i	-8.5%	-45.6%
GLP1R inv ag	nt	?	8.91µM*	7.94µM*	?	11.2µM*	10µM*	13.8%	-3.6%	10µM*
GLP1R ag	nt	-2.2%	-23.3%	-17.0%	5.1%	0.9%	-10.9%	nt	nt	-1.0%
Pin1 inh	22.1%	-0.6%	1.7%	2.1%	?	-7.2%	?	7.5%	0.3%	7.3%
GLP1R cytotox	nt	3.9%	?	-7.7%	4.2%	-15.4%	?	-9.5%	?	29.6%
